This note sets out measurements from the SangsterLogP compilation.

Molecules are shown by their SMILES.

For the compound `Ic1ccccc1`, the logP came out at 3.23.

As usually defined, the logP is a log measure of how a compound divides between an organic and an aqueous phase. Read a high logP as a more lipophilic compound.
